Laboratory results published in ChEMBL document CHEMBL4765376, “Discovery of an Orally Available Diazabicyclooctane Inhibitor (ETX0282) of Class A, C, and D Serine β-Lactamases” (J Med Chem, 2020).

Legend:
Enterobacter cloacae = assay: Inhibition of beta lactamase P99 in Enterobacter cloacae assessed as ratio of Kinact/Ki using nitrocefin as chromogenic substrate by fluorescence plate reader analysis
Bacteria [1] = assay: Inhibition of bacterial TEM-1 assessed as ratio of Kinact/Ki using nitrocefin as chromogenic substrate by fluorescence plate reader analysis
Bacteria [2] = assay: Inhibition of bacterial OXA-10 assessed as ratio of Kinact/Ki using nitrocefin as chromogenic substrate by fluorescence plate reader analysis
Bacteria [3] = assay: Inhibition of bacterial KPC-2 assessed as ratio of Kinact/Ki using nitrocefin as chromogenic substrate by fluorescence plate reader analysis
Bacteria [4] = assay: Inhibition of bacterial CTX-M-14 assessed as ratio of Kinact/Ki using nitrocefin as chromogenic substrate by fluorescence plate reader analysis
Bacteria [5] = assay: Inhibition of bacterial OXA-24 assessed as ratio of Kinact/Ki using nitrocefin as chromogenic substrate by fluorescence plate reader analysis
Bacteria [6] = assay: Inhibition of bacterial OXA-48 assessed as ratio of Kinact/Ki using nitrocefin as chromogenic substrate by fluorescence plate reader analysis
Escherichia coli = assay: Inhibition of Escherichia coli PBP2 assessed as ratio of Kinact/Ki by SDS-PAGE based fluorescence assay
Bacteria [7] = assay: Inhibition of bacterial SHV-5 assessed as ratio of Kinact/Ki using nitrocefin as chromogenic substrate by fluorescence plate reader analysis
Bacteria [8] = assay: Inhibition of bacterial CTX-M-15 assessed as ratio of Kinact/Ki using nitrocefin as chromogenic substrate by fluorescence plate reader analysis
Bacteria [9] = assay: Inhibition of bacterial OXA-23 assessed as ratio of Kinact/Ki using nitrocefin as chromogenic substrate by fluorescence plate reader analysis
Pseudomonas aeruginosa = assay: Inhibition of beta lactamase AmpC in Pseudomonas aeruginosa assessed as ratio of Kinact/Ki using nitrocefin as chromogenic substrate by fluorescence plate reader analysis

Q: Which Ratio (Enterobacter cloacae) does the source give for `CC1=C[C@H](C(N)=O)N2C[C@@H]1N(O[C@H](F)C(=O)O)C2=O` here?
A: The Ratio was 3.9 10^4/M/s.

Q: What about the Ratio (Bacteria [1]) of the same compound?
A: Its Ratio is “inactive”.

Q: What about the Ratio (Bacteria [2]) of the same compound?
A: The Ratio was 6.8 10^2/M/s.

Q: What about the Ratio (Bacteria [3]) of the same compound?
A: The Ratio was 4.9 10^4/M/s.

Q: And the Ratio (Bacteria [4])?
A: The Ratio was 2 10^6/M/s.

Q: What about the Ratio (Bacteria [5]) of the same compound?
A: Its Ratio is 4.6 10^3/M/s.

Q: And the Ratio (Bacteria [6])?
A: The Ratio was 5.3 10^4/M/s.

Q: And the Ratio (Escherichia coli)?
A: Its Ratio is 9.3 10^3/M/s.

Q: What about the Ratio (Bacteria [7]) of the same compound?
A: Its Ratio is 3.2 10^6/M/s.

Q: What about the Ratio (Bacteria [8]) of the same compound?
A: Its Ratio is 4.8 10^6/M/s.

Q: What about the Ratio (Bacteria [9]) of the same compound?
A: Its Ratio is 1.54 10^3/M/s.

Q: What about the Ratio (Pseudomonas aeruginosa) of the same compound?
A: The Ratio was 1.2 10^4/M/s.

Calls of active or inactive are those of the source. The calls are words filed in the database; no cut-off is given here.
